Series [1] is described as follows: GFR by iohexol plasma clearance in gentamycin-induced AKI dogs. The class given is in vivo, dog. The note with it: Day 0, 150 mg/kg iohexol IV, individual dogs (repeat results for two dogs). The protocol: EDTA-anticoagulated blood was collected at 0, 5, 10, 20, 30, 60, 180, 240 and 300 minutes post-injection, centrifuged within 3 hours, and stored at -20° C.

The next series concerns dogs. Nature of the series: Gentamycin-induced acute kidney injury in dogs: serum creatinine, BUN, USG, UPC. The series is classed as in vivo, dog. Particulars: all five study dogs. The text has this: Five spayed female young adult hound-type mogrel dogs were confirmed to be in good health based on physical examination, complete blood count, blood chemistry analysis, urinalysis, urine protein-to-creatine ratio (UPC) and aerobic urine culture.

Take `CC(=O)N(CC(O)CO)c1c(I)c(C(=O)NCC(O)CO)c(I)c(C(=O)NCC(O)CO)c1I` (centres unmarked) [iohexol]: in series [1], the “GFR: Iohexol Plasma Clearance” value worked out at 4.49 mL/min/kg.

Consider gentamycin, for which, in the series with dogs, the “increases over baseline serum creatinine” value is recorded as “Greater than 25%”.

(Values after patent US8591865B2, “Renal function analysis method and apparatus” (Pharmacophotonics, Inc., priority 2008, dated 2013).)
